Inhibition data for 1 compound are collected here from PubChem BioAssay AID602277 (University of Pittsburgh Molecular Library Screening Center, 2012).

As a reminder, the inhibition is the share of the control response that was lost under treatment.

This is a selection; strong and weak results do not stand in their true shares. Some results for these compounds are left out of this collection, so the calls shown say nothing about other tests. Active and inactive are the calls of the source.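 How the source made its calls: active means inhibition of the reporter signal at or above 50%; inactive means inhibition below 50%.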

The nature of this assay: TLR3 IRF3 reporter activation blockers – cell-based, poly I:C stimulus, luciferase, 10K MLSCN set, primary screen (AID 602277). Conditions: HEK293-TLR3 RL24 IRF3 luciferase reporter, at 10 µM, hits give high values. (A reporter such as luciferase makes a cellular process visible.)
In the case of `O=C(OC1CN2CCC1CC2)C(CO)(c1ccccc1)c1ccccc1` (stereo unspecified), the inhibition is inactive: 17.9%.
